Biological target: 5-hydroxytryptamine receptor 1A (Rattus norvegicus, UniProt P19327)
Assay: In vitro ability to displace [3H]8-hydroxy-2-(di-n-propylamino) tetralin binding from 5-hydroxytryptamine 1A receptor site in rat brain hippocampus
Assay type: tissue-based

By UniProt entry, the sequences of proteins in these tests, tags left out.
UniProt P19327, whole entry: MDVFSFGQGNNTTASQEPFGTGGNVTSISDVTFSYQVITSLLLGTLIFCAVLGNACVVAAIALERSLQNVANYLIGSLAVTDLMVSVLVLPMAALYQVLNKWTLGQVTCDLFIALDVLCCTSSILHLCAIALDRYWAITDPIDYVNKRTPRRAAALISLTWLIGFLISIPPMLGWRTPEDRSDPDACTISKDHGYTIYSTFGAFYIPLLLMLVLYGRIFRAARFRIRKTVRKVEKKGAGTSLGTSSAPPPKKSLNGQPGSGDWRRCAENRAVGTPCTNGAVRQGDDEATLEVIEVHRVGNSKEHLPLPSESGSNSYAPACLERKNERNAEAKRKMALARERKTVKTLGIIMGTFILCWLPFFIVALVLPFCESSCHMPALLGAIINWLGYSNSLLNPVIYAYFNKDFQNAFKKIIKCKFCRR

CC1(C)CC(=O)N(CCCCN2CCN(c3ncccn3)CC2)C(=O)C1 [GEPIRONE]
Ki: 31.8 nM
